12 compounds from patent US8067603B2 (priority 2003, dated 2011) can be followed below.

The chains behind the UniProt entries cited, without tags or fusion partners.
UniProt P35372, whole entry: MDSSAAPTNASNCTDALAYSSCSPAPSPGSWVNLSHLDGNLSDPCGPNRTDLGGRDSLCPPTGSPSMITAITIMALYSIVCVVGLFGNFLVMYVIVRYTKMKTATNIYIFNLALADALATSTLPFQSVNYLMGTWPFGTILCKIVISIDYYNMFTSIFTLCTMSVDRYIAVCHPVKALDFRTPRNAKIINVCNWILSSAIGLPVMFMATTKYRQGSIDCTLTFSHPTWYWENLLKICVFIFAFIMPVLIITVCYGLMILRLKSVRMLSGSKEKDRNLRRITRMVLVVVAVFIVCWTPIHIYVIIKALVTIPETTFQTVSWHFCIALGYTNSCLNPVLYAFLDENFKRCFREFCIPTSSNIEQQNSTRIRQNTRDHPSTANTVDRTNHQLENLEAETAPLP
UniProt P41146, whole entry: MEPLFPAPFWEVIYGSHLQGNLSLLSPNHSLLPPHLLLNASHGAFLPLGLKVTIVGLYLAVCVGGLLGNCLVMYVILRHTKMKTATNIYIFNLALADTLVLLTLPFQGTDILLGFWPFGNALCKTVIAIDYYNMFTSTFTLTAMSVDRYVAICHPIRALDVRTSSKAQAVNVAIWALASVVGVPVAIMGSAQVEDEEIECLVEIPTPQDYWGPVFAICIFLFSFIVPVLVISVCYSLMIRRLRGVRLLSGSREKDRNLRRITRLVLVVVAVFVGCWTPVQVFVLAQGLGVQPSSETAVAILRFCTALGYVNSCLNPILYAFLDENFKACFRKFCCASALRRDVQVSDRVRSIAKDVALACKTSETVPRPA
UniProt P35370, whole entry: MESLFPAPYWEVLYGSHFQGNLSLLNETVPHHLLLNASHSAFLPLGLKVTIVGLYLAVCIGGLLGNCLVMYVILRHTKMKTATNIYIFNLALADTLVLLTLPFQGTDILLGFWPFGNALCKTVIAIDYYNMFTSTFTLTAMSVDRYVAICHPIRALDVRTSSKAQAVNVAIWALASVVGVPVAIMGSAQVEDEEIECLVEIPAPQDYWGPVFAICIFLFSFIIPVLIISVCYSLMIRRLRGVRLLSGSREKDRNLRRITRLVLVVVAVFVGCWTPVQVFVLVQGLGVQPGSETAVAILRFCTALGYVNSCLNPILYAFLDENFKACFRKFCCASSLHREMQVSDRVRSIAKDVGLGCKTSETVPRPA

In one assay the target is human μ-opiate receptor (Homo sapiens, UniProt P35372). The assay is described as follows: Affinity for human μ-opiate receptors, [3H]-naloxone binding, CHO-cell membranes. The note with it: membranes of CHO-cells expressing human μ-opiate receptor. The procedure: Affinity of the compounds for μ-opiate receptors was determined using the in vitro receptor binding assay described by Childers et al, Eur. J. Pharm 55, 11, 1979. Briefly, membrane preparations were obtained from CHO-cells in which the human μ-opiate receptor was stably expressed, and were incubated with the [^3H]-naloxone in the absence or presence of test-compounds in a concentration range from 10 μM down to 0.1 nM, diluted in a suitable buffer. Non specific binding was defined as binding remaining in the presence of 10^−7 M levallorphan tartrate.

Assay [1] has as its target T1, ORL1 receptor (Homo sapiens, UniProt P41146). The assay is described as follows: Affinity for human ORL1 receptors, [3H]-nociceptin binding, CHO-cell membranes. The note with it: membranes of CHO-cells expressing human ORL1. How it is done:
Affinity of the compounds for human ORL1 receptors was determined using the in vitro receptor binding assay described by Ardati et al., Mol. Pharmacol., 51, 816, 1997. Briefly, membrane preparations were obtained from CHO-cells in which the human ORL1 receptor was stably expressed. Membranes were incubated with [^3H]-nociceptin in the absence or presence of test compound in different concentrations, diluted in a suitable buffer. Non specific binding was defined as binding remaining in the presence of 10^−6 M nociceptin. Separation of bound radioactivity from free was done by filtration through Packard GF/B glass fiber filters with several washings with ice-cold buffer using a Packard cell harvester. Bound radioactivity was measured with a scintillation counter (Topcount, Packard) using a liquid scintillation cocktail (Microscint 0, Packard). Measured radioactivity was plotted against the concentration of the displacing test compound and displacement curves were calculated by four-parameter logistic regression, resulting in IC50 values, i.e. that concentration of test compound by which 50% of the radioligand is displaced.

Assay [2] concerns the target T1, ORL1 receptor. The assay can be described thus: In vitro ORL1 receptor agonism, cAMP assay. How it is done: Activation of the G protein-coupled ORL1 receptor inhibits adenylate cyclase activity and reduces the intracellular concentration of the second messager cAMP. Using the assay as described by Jenck et al., Proc. Natl. Acad. Sci. USA, 97, 4938-4943, 2000, the activity of the compounds on ORL1 receptors was measured.

In another assay the test system is rats. The assay can be described thus: ORL1 agonist induced decrease in blood pressure. Conditions: anaesthetized rats.
In a further assay the test system is Male Wistar rats. The assay is described as follows: ORL1 agonist and morphine induced effects on food intake. The assay is classed as in vivo. The note with it: agonist 6 mg/kg.
For assay [3], the target named is ORL1 receptor (Rattus norvegicus, UniProt P35370). The assay can be described thus: In vivo ORL1 agonism: Conditioned Ultrasonic Distress Vocalisation (CUDV).

This is a selection: effects in other tests are not listed, and their absence says nothing.

Take `O=c1[nH]c2ccc(F)c(F)c2n1C1CCN(C2CCC3CCCc4cccc2c43)CC1` (centres unmarked): on human μ-opiate receptor, the “affinity μ-opi pKi” value is less than 6.0. Further, at ORL1 receptor [1], the “affinity ORL1 pKi” value is 7.4.
Regarding `Cc1cccc2c1[nH]c(=O)n2C1CCN(C2CCC3CCCc4cccc2c43)CC1` (centres unmarked), the “affinity μ-opi pKi” value at human μ-opiate receptor is recorded as 7.5. Besides, the “affinity ORL1 pKi” value at ORL1 receptor [1] was found to be 8.6.
`O=c1[nH]c2ccc(F)cc2n1C1CCN(C2CCC3CCCc4cccc2c43)CC1` (centres unmarked): the “affinity μ-opi pKi” value on human μ-opiate receptor is 6.9. Further, the “In vitro agonism cAMP assay pEC50” value on ORL1 receptor [2] turned out to be 9.2. For the same compound, the “affinity ORL1 pKi” value at ORL1 receptor [1] was 8.2.
Take `O=c1[nH]c2cc(F)ccc2n1C1CCN(C2CCC3CCCc4cccc2c43)CC1` (centres unmarked): on human μ-opiate receptor, the “affinity μ-opi pKi” value came to 6.4. Moreover, the “affinity ORL1 pKi” value at ORL1 receptor [1] is given as 8.4.
In the case of `COc1ccc2[nH]c(=O)n(C3CCN(C4CCC5CCCc6cccc4c65)CC3)c2c1` (centres unmarked), on ORL1 receptor [1], the “affinity ORL1 pKi” value turned out to be 7.3.
Regarding `O=c1[nH]c2ccccc2n1C1CCN(C2CCC3CCCc4cccc2c43)CC1` (centres unmarked), the “ED80 (dose producing 20% reduction in blood pressure), +2 mg/kg naloxone” value with rats (i.v., 2 mg/kg naloxone 10 min before) came to 0.334 mg/kg. In addition, the “ED80 (dose producing 20% reduction in blood pressure when compared to control values), Compound alone” value in the assay on rats (increasing i.v. doses, compound alone) came to 0.356 mg/kg. Moreover, the “affinity μ-opi pKi” value at human μ-opiate receptor is recorded as 7.0. The “Intake, antagonism by J-113397” value with Male Wistar rats (J-113397 0 mg/kg) was determined as 1.25 ± 0.39 g; with Male Wistar rats (J-113397 3 mg/kg), 0.15 ± 0.08 g; in the assay with Male Wistar rats (J-113397 10 mg/kg), 0.08 ± 0.002 g; in the assay on Male Wistar rats (J-113397 30 mg/kg), 0.07 ± 0.002 g. Further, the “Intake, antagonism by Naloxone” value in the assay on Male Wistar rats (naloxone 0 mg/kg) is on record as 1.02 ± 0.30 g; with Male Wistar rats (naloxone 0.3 mg/kg), 0.51 ± 0.16 g; in the assay with Male Wistar rats (naloxone 1 mg/kg), 0.74 ± 0.27 g; with Male Wistar rats (naloxone 3 mg/kg), 0.78 ± 0.23 g. Moreover, the “In vitro agonism cAMP assay pEC50” value at ORL1 receptor [2] was determined as 9.6. Besides, on ORL1 receptor [3] (intraperitoneal), the “CUDV ED50 i.p.” value is given as 0.2 mg/kg. In addition, the “CUDV ED50 p.o.” value at ORL1 receptor [3] (per os (oral)) came out at 0.9 mg/kg. For the same compound, at ORL1 receptor [1], the “affinity ORL1 pKi” value was determined as 8.4.
With `O=c1[nH]c2cccc(F)c2n1C1CCN(C2CCC3CCCc4cccc2c43)CC1` (centres unmarked), the “affinity ORL1 pKi” value on ORL1 receptor [1] worked out at 7.8.
Regarding `O=c1[nH]c2ccc(OC(F)(F)F)cc2n1C1CCN(C2CCC3CCCc4cccc2c43)CC1` (centres unmarked), at ORL1 receptor [1], the “affinity ORL1 pKi” value turned out to be 7.5.
In the case of `O=c1[nH]c2ccccc2n1C1CCN([C@H]2CC[C@@H]3CCCc4cccc2c43)CC1`, the “affinity μ-opi pKi” value at human μ-opiate receptor is 7.5. Moreover, the “In vitro agonism cAMP assay pEC50” value on ORL1 receptor [2] is recorded as 9.8. The “affinity ORL1 pKi” value on ORL1 receptor [1] is reported as 8.8.
Regarding `O=c1[nH]c2ccccc2n1C1CCN([C@@H]2CC[C@H]3CCCc4cccc2c43)CC1`, on human μ-opiate receptor, the “affinity μ-opi pKi” value came out at 6.6. The “In vitro agonism cAMP assay pEC50” value at ORL1 receptor [2] worked out at 8.7. Further, the “affinity ORL1 pKi” value at ORL1 receptor [1] worked out at 7.5.
For the compound `O=c1[nH]c2ccc(Cl)cc2n1C1CCN(C2CCC3CCCc4cccc2c43)CC1` (centres unmarked), the “affinity μ-opi pKi” value at human μ-opiate receptor was 6.6. Also, on ORL1 receptor [2], the “In vitro agonism cAMP assay pEC50” value is 7.1. Moreover, on ORL1 receptor [1], the “affinity ORL1 pKi” value came to 8.1.
On to `O=c1[nH]c2ccc(C(F)(F)F)cc2n1C1CCN(C2CCC3CCCc4cccc2c43)CC1` (centres unmarked), for which the “affinity μ-opi pKi” value at human μ-opiate receptor is recorded as less than 6.0. Besides, on ORL1 receptor [1], the “affinity ORL1 pKi” value stood at 7.3.
